# In patent EP4840852A1, “DIPHENYLTRIAZINE COMPOUND, PREPARATION METHOD THEREFOR AND USE THEREOF” (dated 2026):
# Protein sequences, listed by entry. Tags and fused reporters are not part of them.
# UniProt P43119, whole entry: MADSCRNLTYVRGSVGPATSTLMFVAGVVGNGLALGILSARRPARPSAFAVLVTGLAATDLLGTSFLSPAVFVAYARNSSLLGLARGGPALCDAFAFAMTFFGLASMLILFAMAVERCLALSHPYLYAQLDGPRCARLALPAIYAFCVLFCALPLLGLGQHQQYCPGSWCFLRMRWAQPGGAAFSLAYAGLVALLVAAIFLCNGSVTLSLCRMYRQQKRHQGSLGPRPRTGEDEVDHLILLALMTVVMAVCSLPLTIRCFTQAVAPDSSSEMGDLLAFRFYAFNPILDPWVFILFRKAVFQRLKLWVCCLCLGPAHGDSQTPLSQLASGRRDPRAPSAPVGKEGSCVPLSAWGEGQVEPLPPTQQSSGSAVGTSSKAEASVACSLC
# UniProt P34995, whole entry: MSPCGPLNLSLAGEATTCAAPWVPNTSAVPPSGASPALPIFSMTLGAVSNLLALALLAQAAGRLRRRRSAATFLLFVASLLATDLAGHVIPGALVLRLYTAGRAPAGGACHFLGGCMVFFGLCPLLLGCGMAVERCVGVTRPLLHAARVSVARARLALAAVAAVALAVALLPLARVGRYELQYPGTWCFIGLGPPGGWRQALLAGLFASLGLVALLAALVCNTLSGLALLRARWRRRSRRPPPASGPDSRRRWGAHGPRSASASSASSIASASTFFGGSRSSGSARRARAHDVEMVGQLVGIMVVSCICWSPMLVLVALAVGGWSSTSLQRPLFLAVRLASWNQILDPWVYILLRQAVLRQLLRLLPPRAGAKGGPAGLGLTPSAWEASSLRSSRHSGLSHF
# UniProt P43116, whole entry: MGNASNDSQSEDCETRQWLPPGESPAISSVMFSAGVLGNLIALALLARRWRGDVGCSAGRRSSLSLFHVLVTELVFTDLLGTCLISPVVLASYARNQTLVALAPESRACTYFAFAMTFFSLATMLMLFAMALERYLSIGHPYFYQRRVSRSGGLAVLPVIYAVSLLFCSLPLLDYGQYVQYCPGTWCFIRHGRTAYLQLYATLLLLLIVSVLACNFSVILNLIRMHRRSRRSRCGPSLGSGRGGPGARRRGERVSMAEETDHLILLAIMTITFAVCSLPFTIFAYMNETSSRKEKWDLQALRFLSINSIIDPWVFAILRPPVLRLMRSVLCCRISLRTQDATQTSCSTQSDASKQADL
# UniProt P43115, whole entry: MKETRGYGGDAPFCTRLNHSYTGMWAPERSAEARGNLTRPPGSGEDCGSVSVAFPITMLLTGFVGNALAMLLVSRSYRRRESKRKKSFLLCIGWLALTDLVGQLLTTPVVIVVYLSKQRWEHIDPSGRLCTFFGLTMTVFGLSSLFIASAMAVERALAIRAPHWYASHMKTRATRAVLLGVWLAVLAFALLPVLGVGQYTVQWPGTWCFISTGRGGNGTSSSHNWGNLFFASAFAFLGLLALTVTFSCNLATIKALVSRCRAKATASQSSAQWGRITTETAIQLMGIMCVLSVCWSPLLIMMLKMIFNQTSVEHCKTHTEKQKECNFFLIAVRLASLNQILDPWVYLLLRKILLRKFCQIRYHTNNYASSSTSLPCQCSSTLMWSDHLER
# UniProt P35408, whole entry: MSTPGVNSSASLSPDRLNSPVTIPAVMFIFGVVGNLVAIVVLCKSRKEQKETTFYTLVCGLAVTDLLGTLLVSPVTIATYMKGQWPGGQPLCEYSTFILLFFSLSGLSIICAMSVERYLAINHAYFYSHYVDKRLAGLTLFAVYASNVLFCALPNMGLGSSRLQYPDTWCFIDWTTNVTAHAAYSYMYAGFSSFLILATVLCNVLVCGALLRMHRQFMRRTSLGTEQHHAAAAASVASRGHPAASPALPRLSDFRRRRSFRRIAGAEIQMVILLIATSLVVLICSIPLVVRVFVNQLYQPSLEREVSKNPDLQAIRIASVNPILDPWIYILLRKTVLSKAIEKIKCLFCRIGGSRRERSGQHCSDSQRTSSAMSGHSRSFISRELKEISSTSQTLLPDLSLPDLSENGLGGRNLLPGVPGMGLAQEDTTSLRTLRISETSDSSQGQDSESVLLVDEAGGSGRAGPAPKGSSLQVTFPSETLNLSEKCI
# UniProt Q13258, whole entry: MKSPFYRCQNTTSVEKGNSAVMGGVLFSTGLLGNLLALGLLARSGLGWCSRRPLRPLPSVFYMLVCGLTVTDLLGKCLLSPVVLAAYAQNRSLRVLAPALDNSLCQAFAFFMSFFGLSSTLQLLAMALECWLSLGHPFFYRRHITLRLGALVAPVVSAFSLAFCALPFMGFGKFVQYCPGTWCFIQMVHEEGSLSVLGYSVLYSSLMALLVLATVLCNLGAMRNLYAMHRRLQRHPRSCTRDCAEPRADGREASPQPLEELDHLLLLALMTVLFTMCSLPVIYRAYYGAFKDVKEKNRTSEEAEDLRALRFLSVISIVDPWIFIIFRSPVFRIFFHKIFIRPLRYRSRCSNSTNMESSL
# UniProt P43088, whole entry: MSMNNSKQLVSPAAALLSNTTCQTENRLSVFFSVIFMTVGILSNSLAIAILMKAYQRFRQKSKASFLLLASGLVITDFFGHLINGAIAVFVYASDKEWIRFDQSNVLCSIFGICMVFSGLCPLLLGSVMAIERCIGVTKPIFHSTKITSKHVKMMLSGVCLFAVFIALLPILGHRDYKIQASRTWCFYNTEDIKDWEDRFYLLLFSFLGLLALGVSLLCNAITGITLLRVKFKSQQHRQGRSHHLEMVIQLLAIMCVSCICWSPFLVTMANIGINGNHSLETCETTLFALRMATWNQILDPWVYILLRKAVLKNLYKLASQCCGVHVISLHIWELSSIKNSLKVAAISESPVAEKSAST
# UniProt P21731, whole entry: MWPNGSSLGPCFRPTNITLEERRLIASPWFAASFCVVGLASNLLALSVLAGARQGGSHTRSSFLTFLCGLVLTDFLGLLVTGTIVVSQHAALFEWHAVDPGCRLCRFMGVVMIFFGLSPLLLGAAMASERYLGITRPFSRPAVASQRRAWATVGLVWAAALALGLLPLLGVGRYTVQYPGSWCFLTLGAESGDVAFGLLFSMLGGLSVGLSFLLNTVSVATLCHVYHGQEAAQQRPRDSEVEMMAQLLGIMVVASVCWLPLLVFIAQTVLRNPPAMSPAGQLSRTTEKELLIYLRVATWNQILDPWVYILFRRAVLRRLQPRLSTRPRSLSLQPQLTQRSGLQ
# Legend:
# IP = IP (Homo sapiens, UniProt P43119); assay: Functional activity (HTRF cAMP / HTRF IP1) in cell line stably expressing IP receptor; details: read-out: absolute EC50; agonistic activation on IP target; initial test concentration 10000 nM
# EP1 = EP1 (Homo sapiens, UniProt P34995); assay: Functional activity (HTRF cAMP / HTRF IP1) in cell line stably expressing EP1 receptor; details: read-out: absolute EC50; agonistic activation on EP1 target; initial test concentration 10000 nM
# EP2 = EP2 (Homo sapiens, UniProt P43116); assay: Functional activity (HTRF cAMP / HTRF IP1) in cell line stably expressing EP2 receptor; details: read-out: absolute EC50; agonistic activation on EP2 target; initial test concentration 10000 nM
# EP3 = EP3 (Homo sapiens, UniProt P43115); assay: Functional activity (HTRF cAMP / HTRF IP1) in cell line stably expressing EP3 receptor; details: read-out: absolute EC50; agonistic activation on EP3 target; initial test concentration 10000 nM
# EP4 = EP4 (Homo sapiens, UniProt P35408); assay: Functional activity (HTRF cAMP / HTRF IP1) in cell line stably expressing EP4 receptor; details: read-out: absolute EC50; agonistic activation on EP4 target; initial test concentration 10000 nM
# DP = DP (Homo sapiens, UniProt Q13258); assay: Functional activity (HTRF cAMP / HTRF IP1) in cell line stably expressing DP receptor; details: read-out: absolute EC50; agonistic activation on DP target; initial test concentration 10000 nM
# FP = FP (Homo sapiens, UniProt P43088); assay: Functional activity (HTRF cAMP / HTRF IP1) in cell line stably expressing FP receptor; details: read-out: absolute EC50; agonistic activation on FP target; initial test concentration 10000 nM
# TP = TP (Homo sapiens, UniProt P21731); assay: Functional activity (HTRF cAMP / HTRF IP1) in cell line stably expressing TP receptor; details: read-out: absolute EC50; agonistic activation on TP target; initial test concentration 10000 nM
# [1] = tested on: Human pulmonary arterial smooth muscle cells (HPASMCs); assay: PDGF-induced proliferation of pulmonary arterial smooth muscle cells (CellTiter-Glo); details: read-out: IC50 for inhibiting PDGF-induced proliferation of pulmonary arterial smooth muscle cells; 20 ng/mL hPDGF-BB; CTG assay
# [2] = tested on: Monocrotaline (MCT)-Induced Pulmonary Arterial Hypertension Rat Model; assay: Monocrotaline (MCT)-induced pulmonary arterial hypertension rat model; details: for RVSP / RV/(LV+S): 19 days; for maximum reduction of RVSP / maximum reduction of right ventricular hypertrophy index (RV/(LV+S)): compared with model control group; for RV/(LV+S): right ventricular hypertrophy index
# TA98 strain = assay: Bacterial reverse mutation assay with 6-well plate, TA98
# [3] = 0.15 mg/kg oral gavage twice daily
# [4] = 0.50 mg/kg oral gavage twice daily
# [5] = 1.50 mg/kg oral gavage twice daily
structure (smiles),measurement,setting,value
CC(C)N(CCCCCC(=O)NS(C)(=O)=O)c1nnc(-c2ccccc2)c(-c2ccccc2)n1,EC50,IP,0.00048 µM
same,EC50,EP1,> 10 µM
same,EC50,EP2,> 10 µM
same,EC50,EP3,> 10 µM
same,EC50,EP4,> 10 µM
same,EC50,DP,> 10 µM
same,EC50,FP,> 10 µM
same,EC50,TP,> 10 µM
same,IC50,[1],9.65 µM
same,RVSP,[2]; [3],55.01±2.54 mmHg
same,Body Weight,"[2]; 0.15 mg/kg oral gavage twice daily, D1",300.1 ± 11.7 g
same,Body Weight,"[2]; 0.15 mg/kg oral gavage twice daily, D5",333.2 ± 7.6 g
same,Body Weight,"[2]; 0.15 mg/kg oral gavage twice daily, D8",354.5±10.0* * g
same,Body Weight,"[2]; 0.15 mg/kg oral gavage twice daily, D12",369.1 ± 12.3 g
same,Body Weight,"[2]; 0.15 mg/kg oral gavage twice daily, D15",381.7 ± 16.0 g
same,Body Weight,"[2]; 0.15 mg/kg oral gavage twice daily, D19",406.7±19.0* * g
same,Body Weight,"[2]; 0.15 mg/kg oral gavage twice daily, D20",412.6 ± 18.8 g
same,maximum reduction of RVSP,[2]; 0.15 mg/kg,approximately 15%
same,maximum reduction of right ventricular hypertrophy index (RV/(LV+S)),[2]; 0.15 mg/kg,17%
same,RVSP,[2]; [4],42.99±1.61 mmHg
same,Body Weight,"[2]; 0.5 mg/kg oral gavage twice daily, D1",297.6 ± 13.5 g
same,Body Weight,"[2]; 0.5 mg/kg oral gavage twice daily, D5",327.6 ± 15.4 g
same,Body Weight,"[2]; 0.5 mg/kg oral gavage twice daily, D8",343.0 ± 15.2 g
same,Body Weight,"[2]; 0.5 mg/kg oral gavage twice daily, D12",363.4 ± 18.1 g
same,Body Weight,"[2]; 0.5 mg/kg oral gavage twice daily, D15",375.2 ± 16.8 g
same,Body Weight,"[2]; 0.5 mg/kg oral gavage twice daily, D19",396.2 ± 20.9 g
same,Body Weight,"[2]; 0.5 mg/kg oral gavage twice daily, D20",401.3 ± 24.0 g
same,maximum reduction of RVSP,[2]; 0.5 mg/kg,33%
same,maximum reduction of right ventricular hypertrophy index (RV/(LV+S)),[2]; 0.5 mg/kg,27%
same,RVSP,[2]; [5],36.96±2.21 mmHg
same,Body Weight,"[2]; 1.5 mg/kg oral gavage twice daily, D1",296.9 ± 17.5 g
same,Body Weight,"[2]; 1.5 mg/kg oral gavage twice daily, D5",330.4 ± 17.3 g
same,Body Weight,"[2]; 1.5 mg/kg oral gavage twice daily, D8",347.4 ± 17.5 g
same,Body Weight,"[2]; 1.5 mg/kg oral gavage twice daily, D12",362.5 ± 24.5 g
same,Body Weight,"[2]; 1.5 mg/kg oral gavage twice daily, D15",371.2 ± 27.1 g
same,Body Weight,"[2]; 1.5 mg/kg oral gavage twice daily, D19",391.8 ± 30.9 g
same,Body Weight,"[2]; 1.5 mg/kg oral gavage twice daily, D20",399.3 ± 30.8 g
same,maximum reduction of RVSP,[2]; 1.5 mg/kg,43%
same,maximum reduction of right ventricular hypertrophy index (RV/(LV+S)),[2]; 1.5 mg/kg,29%
same,effect on lung tissue lesions,"[2]; HE staining, Compound A 0.15, 0.5, 1.5 mg/kg, Selexipag 1 mg/kg, twice daily 19 days",a certain improving effect
same,RV/(LV+S),[2]; [3],38.45±8.01 %
same,RV/(LV+S),[2]; [4],33.29±9.38 %
same,RV/(LV+S),[2]; [5],32.57±5.39 %
same,Background lawn,"TA98 strain; TA98+S9, 8 µg/well",T0
same,Reverse mutation colony Mean,"TA98 strain; TA98+S9, 8 µg/well",10.0
same,Reverse mutation colony Number per well,"TA98 strain; TA98+S9, 8 µg/well",11 and 9
same,Background lawn,"TA98 strain; TA98+S9, 16 µg/well",T0
same,Reverse mutation colony Mean,"TA98 strain; TA98+S9, 16 µg/well",7.5
same,Reverse mutation colony Number per well,"TA98 strain; TA98+S9, 16 µg/well",8 and 7
same,Background lawn,"TA98 strain; TA98+S9, 31 µg/well",T0
same,Reverse mutation colony Mean,"TA98 strain; TA98+S9, 31 µg/well",8.5
same,Reverse mutation colony Number per well,"TA98 strain; TA98+S9, 31 µg/well",9 and 8
same,Background lawn,"TA98 strain; TA98+S9, 63 µg/well",T0
same,Reverse mutation colony Mean,"TA98 strain; TA98+S9, 63 µg/well",8.0
same,Reverse mutation colony Number per well,"TA98 strain; TA98+S9, 63 µg/well",7 and 9
same,Background lawn,"TA98 strain; TA98+S9, 125 µg/well",T0
same,Reverse mutation colony Mean,"TA98 strain; TA98+S9, 125 µg/well",11.5
same,Reverse mutation colony Number per well,"TA98 strain; TA98+S9, 125 µg/well",12 and 11
same,Background lawn,"TA98 strain; TA98+S9, 250 µg/well",T0
same,Reverse mutation colony Mean,"TA98 strain; TA98+S9, 250 µg/well",8.0
same,Reverse mutation colony Number per well,"TA98 strain; TA98+S9, 250 µg/well",9 and 7
same,Background lawn,"TA98 strain; TA98+S9, 500 µg/well",T0
same,Reverse mutation colony Mean,"TA98 strain; TA98+S9, 500 µg/well",8.5
same,Reverse mutation colony Number per well,"TA98 strain; TA98+S9, 500 µg/well",10 and 7
same,Background lawn,"TA98 strain; TA98+S9, 1000 µg/well",T0
same,Reverse mutation colony Mean,"TA98 strain; TA98+S9, 1000 µg/well",6.0
same,Reverse mutation colony Number per well,"TA98 strain; TA98+S9, 1000 µg/well",7 and 5
same,Background lawn,"TA98 strain; TA98-S9, 8 µg/well",T0
same,Reverse mutation colony Mean,"TA98 strain; TA98-S9, 8 µg/well",5.0
same,Reverse mutation colony Number per well,"TA98 strain; TA98-S9, 8 µg/well",6 and 4
same,Background lawn,"TA98 strain; TA98-S9, 16 µg/well",T0
same,Reverse mutation colony Mean,"TA98 strain; TA98-S9, 16 µg/well",5.0

# “And” between values parts separate entries of the source, which are not always exact repeats. Identical values can stand only once. Marks after values point to notes of the source that are not given here.
